Assay results taken from paper PMC3939009, “Thrombin inhibitory activity of some polyphenolic compounds” (Medicinal Chemistry Research, 2013).
Like-named read-outs stand apart in the source and are kept apart here.

How the values were obtained:
human thrombin [1] = target: T1, human thrombin (Homo sapiens, UniProt P00734); assay: BIAcore (SPR) analysis of binding to immobilized thrombin; parameters: Thrombin, also known as an active plasma coagulation factor II; purchased Sigma-Aldrich Chemical Co. (St. Louis, MO, USA) T7009
Method: The biosensor assays were performed using the BIAcore 1000 biosensor system. All biosensor analyses were performed with a phosphate-buffered saline (PBS), pH 7.4, as a running buffer. […] The immobilization of thrombin on a biosensor carboxylmethyl dextran surface was performed according to the BIA applications Handbook (BIAcore, [1994]). The process of protein immobilization was performed on a sensor chip CM5 surface by the positively charged functional groups of protein amino acids. The immobilization process consisted of four steps: preconcentration, activation, ligand immobilization and deactivation of the residual NHS esters. […] The temperature during the whole experiment was also constant and was set to 25.0 °C. […] Each of these solutions (10 μl) was injected into an empty sensor chip channel. […] The amount of injected activation mixture was modified, to regulate the amount of immobilized ligand. […] The conditions of the latter experiments were established by numerous pre-tests. The assessed parameters included: the buffer flow rate, the volume of analyte injection, the concentration of analytes, types and concentration of regenerators. […] For each injection of analyte solution, the volume used was 100 μl. After injection of analyte was completed, the dissociation step occurred and the level of the interaction ligand-analyte was measured. During dissociation, the particles non-covalently bound to the ligand were washed out from the working channel. […] To do these calculations, the formulas presented below were used: the association rate […]]; the dissociation rate -d[AB]/dt=kd·[AB]; the equilibrium constants: KA=[AB]/[A]·[B]=ka/kd KD=[A]·[B]/[AB]=kd/ka.

human thrombin [2] = target: T1, human thrombin; assay: Amidolytic activity of thrombin (hydrolysis of chromogenic substrate D-Phe-Pip-Arg-pNA); assay type: biochemical; parameters: Thrombin, also known as an active plasma coagulation factor II; purchased Sigma-Aldrich Chemical Co. (St. Louis, MO, USA) T7009; host or cells: purified from human plasma; details: at 375 μM substrate concentration; compounds 0.1–1,000 μM, preincubation 10 min 37 °C
Method: All tested compounds were dissolved in 50 % DMSO to the initial concentration of 10 mM; other solutions of compounds were also prepared in 50 % DMSO (prepared in 50 mM TBS, pH 7.4). The final concentration of DMSO in thrombin samples was 5 %. To prepare thrombin control samples, the same volume of solvent (50 % DMSO prepared in 50 mM TBS, pH 7.4) was added as in the case of the compound volume and warmed for 10 min to 37 °C.
To each reaction well, 40 μl of 3 mM chromogenic substrate was added. To initiate the chromogenic reaction, 280 μl of control thrombin (without tested compounds) or thrombin after preincubation with a polyphenolic compound to every reaction well in the same moment was added. The absorbance value was monitored every 12 s for 10 min. The maximal velocity of the reaction (V max, Δm OD/min) for each absorbance curve was determined. IC50 value (parameter) for every polyphenolic compound from inhibition curves was estimated.

For `Oc1cc(O)c2cc(O)c(-c3ccc(O)c(O)c3)[o+]c2c1` [Cyanidin, cyanidin], the “K A, equilibrium association constant” value (human thrombin [1]) was 1.28 × 10^8 M^–1, the “K A, equilibrium association constant” value (human thrombin [1]; 5 sensorgrams, 50 to 1,000 μM) was 1.28e+08 M⁻¹ and the Kd (human thrombin [1]; 5 sensorgrams, 50 to 1,000 μM, read-out: K D, equilibrium dissociation constant) was 7.79 nM. The IC50 (human thrombin [2]) was 250 nM.
